Bounds are passed on as bounds.

Chains of the proteins cited; added tags and fusions are not shown.
UniProt P49137, whole entry: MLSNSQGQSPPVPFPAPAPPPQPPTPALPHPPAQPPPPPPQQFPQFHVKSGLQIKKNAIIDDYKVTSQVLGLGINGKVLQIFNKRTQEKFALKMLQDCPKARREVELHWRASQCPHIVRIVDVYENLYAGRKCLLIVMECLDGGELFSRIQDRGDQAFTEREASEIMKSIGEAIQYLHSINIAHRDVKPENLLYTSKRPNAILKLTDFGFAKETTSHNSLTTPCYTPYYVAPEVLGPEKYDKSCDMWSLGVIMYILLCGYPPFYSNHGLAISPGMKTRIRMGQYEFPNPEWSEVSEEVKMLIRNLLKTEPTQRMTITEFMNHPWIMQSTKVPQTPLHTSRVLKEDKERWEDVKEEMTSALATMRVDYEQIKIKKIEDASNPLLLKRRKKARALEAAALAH

The term IC50 denotes the point on the concentration scale where inhibition reaches its midpoint.

The assay addresses MAPKAP-K2 (Homo sapiens, UniProt P49137). The assay is described as follows: MAPKAP-K2 enzyme activity inhibition assay, Method B (33P-ATP, MultiScreen-PH plate). Conditions: read-out: Inhibitory activity (MAPKAP-K2 IC50 class), recombinant human MAPKAP-K2, 0.5% DMSO, 30 min room temperature. On the procedure:
The assay of inhibitory activity was performed according to Method A described below for Compound No. 1, 2, 3, 4, 20, 21, 22, 23, 24, 25, 26, 79, 80 and 81, and Method B described below for the other compounds.
A compound was dissolved in […] to make its concentration to 20 mmol/L, and the resultant solution was stored at −20° C. The stock solution was sequentially diluted with DMSO to prepare a solution having a 200-fold concentration of the required range. Further the solution was diluted with water to 1:20 to prepare a solution having a 10-fold concentration of the required range, and an aliquot of 5 μL of each solution was used for every reaction with 50 μL. During the continuous dilution of all compounds, the final DMSO concentration was maintained at 0.5%. Compounds were routinely tested at a final concentration ranging from 100 μmol/L to 0.03 μmol/L, but were sometimes tested at a lower concentration depending upon their activity.
The reaction was initiated by adding 25 μL of a peptide substrate solution [60 μmol/L substrate peptide, 20 μmol/L ATP, 50 mmol/L Tris buffer (pH 7.5), 0.1 mmol/L EGTA, 0.1% β-mercaptoetanol, 20 mmol/L magnesium acetate, and 0.1 μCi [γ-33P]ATP (specific radio activity: approximately 110 TBq/mmol)] to 5 μL of a 5% DMSO solution of the test compound and subsequently adding 20 μL of a MAPKAP-K2 enzyme solution [10 mU recombinant human MAPKAP-K2, 50 mmol/L Tris buffer (pH 7.5), 0.1 mmol/L EGTA, 0.1% β-mercaptoethanol, 0.1% BSA]. After performing the reaction for 30 min at room temperature, an equivalent volume of 200 mmol/L phosphoric acid solution was added to terminate the reaction. Subsequently, 90 μL of the reaction product was adsorbed on a MultiScreen-PH Plate (Millipore) and then rinsed with 100 mmol/L phosphoric acid solution. After drying the plate, 30 μL of MicroScint-O (Packard BioScience) was added, and further the count per minute was measured by a scintillation counter to determine the inhibitory activity. The substrate peptide was Lys-Lys-Leu-Asn-Arg-Tlr-Leu-Ser-Val-Ala.
• % Control=(X−B)/(Tot−B)×100 • % Inhibition=100—% Control • X=count per minute of a test compound well • B=count per minute of a well without containing enzyme • Tot=count per minute of a well with DMSO solvent only, without containing the test compound (MAPKAP-K2 inhibitory activity) • IC50 value=the compound concentration at 50% inhibition
`COc1cc(Nc2c(C)c(O[C@H]3CC[C@@H](N)CC3)nc3ccnn23)cc(OC)c1`: the concentration for half-maximal inhibition (IC50) fell in the range of 2000 to 20000 nM.

As for `CC(C)=CCC/C(C)=C/CNc1cc(O[C@H]2CC[C@@H](N)CC2)nc2ccnn12`, the IC50 fell in the range of 2000 to 20000 nM.

Consider `CC(C)c1c(O[C@H]2CC[C@@H](N)CC2)nc2ccnn2c1Nc1ccc(F)c(Cl)c1`, for which the IC50 is 2000 to 20000 nM.

For the compound `COCCOc1ccc(Nc2c(C)c(O[C@H]3CC[C@@H](N)CC3)nc3ccnn23)cc1`, the half-maximal inhibitory concentration (IC50) is less than 2000 nM.

With `Cc1c(O[C@H]2CC[C@@H](N)CC2)nc2ccnn2c1Nc1ccc(Cc2ccccc2)cc1`, the IC50 is less than 2000 nM.

As to `CCOc1ccc(Nc2c(C)c(O[C@H]3CC[C@@H](N)CC3)nc3ccnn23)cc1`, the IC50 was less than 2000 nM.

For `CCOc1ccc(Nc2c(C)c(O[C@@H]3CCCNC3)nc3ccnn23)cc1`, the IC50 is 20000 to 100000 nM.
